Test results taken from ChEMBL document CHEMBL1156200, “Removal of sphingosine 1-phosphate receptor-3 (S1P(3)) agonism is essential, but inadequate to obtain immunomodulating 2-aminopropane-1,3-diol S1P(1) agonists with reduced effect on heart rate” (J Med Chem, 2010).

By UniProt entry, the sequences of proteins in these tests, tags left out.
UniProt P21453, whole entry, looked up: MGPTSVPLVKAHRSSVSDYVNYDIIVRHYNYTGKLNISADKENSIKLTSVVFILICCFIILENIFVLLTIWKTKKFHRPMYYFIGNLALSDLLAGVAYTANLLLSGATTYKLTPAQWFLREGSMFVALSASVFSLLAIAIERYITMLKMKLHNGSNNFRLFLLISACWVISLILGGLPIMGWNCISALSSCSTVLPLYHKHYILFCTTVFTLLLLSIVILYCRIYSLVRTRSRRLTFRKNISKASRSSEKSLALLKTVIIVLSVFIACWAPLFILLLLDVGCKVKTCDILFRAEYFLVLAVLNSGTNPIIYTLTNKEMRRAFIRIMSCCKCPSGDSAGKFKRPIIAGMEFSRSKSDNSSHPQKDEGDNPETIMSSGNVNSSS
UniProt Q99500, whole entry, looked up: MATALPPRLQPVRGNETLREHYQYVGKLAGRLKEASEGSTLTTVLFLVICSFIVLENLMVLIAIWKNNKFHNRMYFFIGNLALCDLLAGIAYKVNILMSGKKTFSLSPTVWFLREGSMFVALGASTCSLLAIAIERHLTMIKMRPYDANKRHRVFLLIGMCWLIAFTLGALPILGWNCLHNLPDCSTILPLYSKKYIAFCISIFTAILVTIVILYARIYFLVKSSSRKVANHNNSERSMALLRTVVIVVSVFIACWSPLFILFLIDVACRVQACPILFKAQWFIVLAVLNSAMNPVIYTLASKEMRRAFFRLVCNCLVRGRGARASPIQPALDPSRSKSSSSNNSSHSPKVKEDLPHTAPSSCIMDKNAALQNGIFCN

Experiments:
[1] = target: Sphingosine 1-phosphate receptor 1 (Homo sapiens, UniProt P21453); conditions: chem1
[2] = target: Sphingosine 1-phosphate receptor 3 (Homo sapiens, UniProt Q99500); conditions: cho

## C=P(O)(O)OCC(N)(CO)CCc1ccc(-c2ccc(SCc3ccccc3)cc2)cc1Cl (configuration not stated)
[1]
  pEC50: 8.68
[2]
  pEC50: < 6.00

pEC50: −log10 of the molar value.
